PubChem BioAssay AID602329 (Broad Institute, 2012)
Only a part is listed here, and it is no random draw. Calls of active or inactive are those of the source.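 The calls were made as follows: active = mean normalized replicate activity at least 40 and at least half of replicates scoring 40 or more; inconclusive = only one of the two criteria met; inactive = mean below 40 and under half of replicates reaching 40.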

Amino acid sequences for entries named in this document (tags omitted).
UniProt Q92698, whole entry: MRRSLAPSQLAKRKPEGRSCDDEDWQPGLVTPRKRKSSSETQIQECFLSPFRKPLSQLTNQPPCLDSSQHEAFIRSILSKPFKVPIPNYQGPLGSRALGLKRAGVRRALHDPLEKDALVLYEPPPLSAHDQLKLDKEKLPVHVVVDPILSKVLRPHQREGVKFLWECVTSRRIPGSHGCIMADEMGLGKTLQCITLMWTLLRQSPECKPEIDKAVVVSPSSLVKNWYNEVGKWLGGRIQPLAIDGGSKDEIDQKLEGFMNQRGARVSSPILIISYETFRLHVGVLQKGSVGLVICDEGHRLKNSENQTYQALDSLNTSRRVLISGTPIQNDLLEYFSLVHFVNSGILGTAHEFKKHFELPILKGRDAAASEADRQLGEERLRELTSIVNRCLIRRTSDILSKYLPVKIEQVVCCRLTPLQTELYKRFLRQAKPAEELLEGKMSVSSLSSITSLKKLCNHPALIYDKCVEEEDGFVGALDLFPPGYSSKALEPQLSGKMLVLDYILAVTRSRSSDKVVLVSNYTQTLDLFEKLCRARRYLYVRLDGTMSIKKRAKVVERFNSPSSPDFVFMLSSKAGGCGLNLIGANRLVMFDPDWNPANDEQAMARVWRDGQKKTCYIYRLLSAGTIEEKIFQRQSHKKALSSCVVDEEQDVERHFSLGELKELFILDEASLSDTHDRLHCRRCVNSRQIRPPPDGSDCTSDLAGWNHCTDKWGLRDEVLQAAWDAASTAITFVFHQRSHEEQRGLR

These compounds were tested against DNA repair and recombination protein RAD54-like (Homo sapiens) (UniProt Q92698) (assay: inhibitors of human RAD54 branch migration, primary screen, biochemical, fluorescence, single point (AID 602329;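 also: 0% = median of neutral control wells and 100% = median of positive control wells; inhibitors cause a drop in the FAM fluorescence signal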)). Details: RAD54 Holliday junction branch migration, FAM/BHQ fluorescence; at 10.4 µM; active compounds read high.
In the case of `CCCOc1ccc(C(=O)NCC2(N(C)C)CCCCC2)cc1OC`, the inhibition was inactive: -2.65%. For `Cc1ccc(C(=O)NCC2(N(C)C)CCCCC2)o1`, the inhibition was inactive: 9.59%. `COc1ccc(C(c2nnnn2C2CCCC2)N2CCC(n3c(=O)[nH]c4ccccc43)CC2)cc1` (stereo not given) was tested, and the inhibition was inactive: 0.791%. `CN1CCC(Nc2cccc(F)c2)CC1` was tested, and the inhibition was inactive: 5.46%. In the case of `O=C(NCC1(N2CCCCC2)CCCCC1)c1cncc(Br)c1`, the inhibition was inactive: -2.91%. `CCCCn1nnnc1C(c1ccnc2ccccc12)N1CCC(n2c(=O)[nH]c3ccccc32)CC1` (stereo not given) was tested, and the inhibition was inactive: 8.04%. With `CCC(c1nnnn1C(C)(C)C)N1CCC(n2c(=O)[nH]c3ccccc32)CC1` (stereo not given) the inhibition was inactive: -11.9%. In the case of `O=C(NCC1(N2CCOCC2)CCCCC1)c1cc(F)c(F)cc1Cl`, the inhibition was inactive: 3.04%. For `COc1cc(OC)c(C(=O)NCC2(N(C)C)CCCCC2)cc1OC`, the inhibition was inactive: 1.79%. `CN(C)c1cccc(C(=O)NCC2(N3CCCCC3)CCCCC2)c1` was tested, and the inhibition was inactive: -3.92%. For `CCCCn1nnnc1C(c1ccccc1OC(F)(F)F)N1CCC(n2c(=O)[nH]c3ccccc32)CC1` (stereo not given), the inhibition was inactive: -7.56%. `CN1CCN(CCOC(=O)C(O)(c2ccccc2)c2ccccc2)CC1` was tested, and the inhibition was inactive: -0.125%. `CCCCn1nnnc1C(c1cccc2ccccc12)N1CCC(n2c(=O)[nH]c3ccccc32)CC1` (stereo not given) was tested, and the inhibition was inactive: 3.78%. `O=C(NCC1(N2CCOCC2)CCCCC1)c1cc(=O)[nH]c2ccccc12` was tested, and the inhibition was inactive: -5.3%. In the case of `COc1cc(C(=O)NCC2(N3CCCCC3)CCCCC2)ccc1OC(F)F`, the inhibition was inactive: -0.954%. With `O=C(NCC1(N2CCCCC2)CCCCC1)c1cccc(C(F)(F)F)c1` the inhibition was inactive: -5.68%. With `CSc1ccc(C(=O)NCC2(N3CCOCC3)CCCCC2)cc1` the inhibition was inactive: 9.47%. `O=c1[nH]c2ccccc2n1C1CCN(C(c2ccccc2OC(F)(F)F)c2nnnn2C2CCCC2)CC1` (stereo not given) was tested, and the inhibition was inactive: -3.99%. In the case of `N#CC1(Nc2ccccc2)CCN(CCc2ccccc2)CC1`, the inhibition was inactive: 3.24%. With `CCN1CCC(Nc2ccc(Cl)cc2)CC1` the inhibition was inactive: 1.37%. `O=C(NCC1(N2CCCCC2)CCCCC1)c1ccc(OC(F)F)cc1` was tested, and the inhibition was inactive: -9.1%. `CC(C)(C)n1nnnc1C(c1ccccc1OC(F)(F)F)N1CCC(n2c(=O)[nH]c3ccccc32)CC1` (stereo not given) was tested, and the inhibition was inactive: 8.72%. In the case of `O=c1[nH]c2ccccc2n1C1CCN(C(c2cccc3ccccc23)c2nnnn2C2CCCC2)CC1` (stereo not given), the inhibition was inactive: -5.35%. For `CCOC(=O)N1CCC(Nc2cccc(C)c2)CC1`, the inhibition was inactive: -5.57%. `COc1cc(C(=O)NCC2(N(C)C)CCCCC2)ccc1OC(F)F` was tested, and the inhibition was inactive: 1.99%.
